Reference: patent US9078909B2, “Tertiary amines, medicaments containing said amines, use thereof and processes for the preparation thereof” (Boehringer Ingelheim International GmbH, priority 2012, dated 2015)

By UniProt entry, the sequences of proteins in these tests, tags left out.
UniProt Q61180, whole entry: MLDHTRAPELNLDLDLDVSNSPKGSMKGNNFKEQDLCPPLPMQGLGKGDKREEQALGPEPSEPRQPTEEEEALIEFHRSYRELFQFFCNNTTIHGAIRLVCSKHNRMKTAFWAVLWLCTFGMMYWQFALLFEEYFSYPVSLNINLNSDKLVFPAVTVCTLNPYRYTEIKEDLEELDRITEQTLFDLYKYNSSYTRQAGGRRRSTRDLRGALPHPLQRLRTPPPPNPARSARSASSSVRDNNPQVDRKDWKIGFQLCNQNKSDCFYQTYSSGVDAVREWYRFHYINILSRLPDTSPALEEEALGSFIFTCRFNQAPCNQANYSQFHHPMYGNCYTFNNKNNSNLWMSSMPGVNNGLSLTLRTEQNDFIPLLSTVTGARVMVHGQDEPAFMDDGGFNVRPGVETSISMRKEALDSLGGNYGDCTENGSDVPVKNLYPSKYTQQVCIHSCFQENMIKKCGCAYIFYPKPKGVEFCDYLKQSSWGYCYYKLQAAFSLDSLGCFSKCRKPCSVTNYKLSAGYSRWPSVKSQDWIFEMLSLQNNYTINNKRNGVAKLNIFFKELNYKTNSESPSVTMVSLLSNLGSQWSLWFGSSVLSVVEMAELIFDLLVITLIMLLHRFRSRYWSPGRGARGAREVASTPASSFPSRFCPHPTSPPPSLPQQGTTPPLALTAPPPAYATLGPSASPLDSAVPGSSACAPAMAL
UniProt Q9WU38, whole entry: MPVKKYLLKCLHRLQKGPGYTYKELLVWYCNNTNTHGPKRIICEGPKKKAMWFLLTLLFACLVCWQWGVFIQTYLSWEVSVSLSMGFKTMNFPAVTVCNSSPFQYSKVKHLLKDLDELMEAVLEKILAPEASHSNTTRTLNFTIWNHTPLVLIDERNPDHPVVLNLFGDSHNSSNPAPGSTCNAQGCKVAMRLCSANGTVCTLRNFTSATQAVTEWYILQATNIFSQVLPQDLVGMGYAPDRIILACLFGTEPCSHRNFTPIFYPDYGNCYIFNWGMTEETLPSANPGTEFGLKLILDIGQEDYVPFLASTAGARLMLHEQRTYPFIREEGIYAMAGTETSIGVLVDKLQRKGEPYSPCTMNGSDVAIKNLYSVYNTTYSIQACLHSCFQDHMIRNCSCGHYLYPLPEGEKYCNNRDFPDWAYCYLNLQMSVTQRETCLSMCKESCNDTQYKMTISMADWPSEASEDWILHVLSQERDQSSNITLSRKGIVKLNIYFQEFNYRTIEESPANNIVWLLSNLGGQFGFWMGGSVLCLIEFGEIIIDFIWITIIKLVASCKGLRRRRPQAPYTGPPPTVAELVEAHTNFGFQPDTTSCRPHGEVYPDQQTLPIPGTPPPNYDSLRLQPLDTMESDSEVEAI
UniProt Q9WU39, whole entry: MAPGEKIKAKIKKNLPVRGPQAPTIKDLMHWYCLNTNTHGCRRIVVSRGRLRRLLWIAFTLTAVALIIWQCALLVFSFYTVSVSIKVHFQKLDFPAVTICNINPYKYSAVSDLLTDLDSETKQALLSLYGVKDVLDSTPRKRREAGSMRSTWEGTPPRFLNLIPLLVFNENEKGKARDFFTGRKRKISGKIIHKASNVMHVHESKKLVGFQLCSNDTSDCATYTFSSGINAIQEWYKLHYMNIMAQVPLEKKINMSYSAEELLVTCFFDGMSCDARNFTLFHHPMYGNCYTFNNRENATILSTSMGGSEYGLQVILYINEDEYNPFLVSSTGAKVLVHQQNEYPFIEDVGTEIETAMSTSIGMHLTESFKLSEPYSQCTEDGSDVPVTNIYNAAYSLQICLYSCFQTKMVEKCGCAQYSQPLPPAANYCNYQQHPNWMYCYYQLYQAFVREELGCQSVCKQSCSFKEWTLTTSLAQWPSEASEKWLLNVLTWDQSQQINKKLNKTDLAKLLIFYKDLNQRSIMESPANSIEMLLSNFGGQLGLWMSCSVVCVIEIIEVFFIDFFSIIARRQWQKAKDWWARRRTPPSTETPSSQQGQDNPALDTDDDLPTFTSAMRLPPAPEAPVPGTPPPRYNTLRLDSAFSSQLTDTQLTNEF

Target: epithelial sodium channel (ENaC) (Mus musculus, UniProt Q61180+Q9WU38+Q9WU39)
Assay: Ussing Chamber assay: inhibition of amiloride sensitive short circuit current (I_sc) in M-1 cells
Conditions: mouse kidney M-1 cells on transwell filters, compound added to apical solution, 37° C.
Procedure: Ussing Chamber: Mouse kidney M-1 cells were cultivated in DMEM containing 5% FCS and 5 μM dexamethasone for 10 to 12 days on polyester transwell filters. Filters were inserted into a teflon-coated well-plate which fit into the in-house ussing chamber system. Prior to measurement the medium of M-1 cells was replaced with Caco-2 transport buffer (Invitrogen, Germany). During measurements, the Ussing chamber temperature was kept at 37° C. Short circuit currents (I_sc) were measured in the voltage-clamp mode using an in-house built amplifier (Boehringer Ingelheim, Biberach) with the software package Lab View for data acquisition and analysis. The transepithelial electrical resistance (TEER) was determined by the application of voltage steps of ±5 mV every 5 sec. Compounds were administered at a final concentration of 3 μM or at increasing concentrations (e.g. 1-3-10 μM) to the apical solution. At the end of each experiment the amiloride sensitive I_SC was measured by adding 3 μM amiloride to the apical compartment. Results are expressed as inhibition in percent of the amiloride effect or as IC50.
With the example compounds given above, the following IC50 values were determined in the Ussing Chamber assay: […]

`NC(=NC(=O)c1nc(Cl)c(N)nc1N)NC1CCN(CC(=O)Nc2ccc(C(=O)O)cc2)CC1` was tested, and the IC50 was 38 nM.
